“Also recorded” adds a separate entry of the source.
Assay: Spinach-based RNA sensor fluorescence in response to guanine
Format: biochemical
Settings: 0.1 μM RNA, 10 μM DFHBI, same concentration as guanine

B1: guanine sensor: Spinach-based turn-on RNA sensor for guanine (nucleic acid)
chain: GACGCGACUGAAUGAAAUGGUGAAGGACGGGUCCAGAUAAUCGCGUGGAUAUGGCACGCAAGUUUCUACCGGGCACCGUAAAUGUCCGACUCUUGUUGAGUAGAGUGUGAGCUCCGUAACUAGUCGCGUC
modifications: chemistry not given here
molecular discrimination: guanosine or adenine: no fluorescence; also recorded: Only baseline fluorescence

Source: patent publication US10444224B2, “Method for RNA detection and quantification” (Cornell University, priority 2011, dated 2019)
